# “And” between values parts separate entries of the source, which are not always exact repeats. Equal values may be shown once. Read-outs that look alike come from different tables or passages of the source.
# Test system: mTORC1 activity (pS6) in Tsc2-sh hippocampal neurons
# Assay: mTORC1 high-content screen (mTORC1^HCA) with the Biomol collection library
# [1] = Z-score of percent GFP+pS6+ neurons in compound-treated Tsc2-knockdown wells, DIV20, Biomol library screen, replica 1
# [2] = Z-score of percent GFP+pS6+ neurons in compound-treated Tsc2-knockdown wells, DIV20, Biomol library screen, replica 2
# [3] = Z-score of percent GFP+pS6+ neurons in compound-treated Tsc2-knockdown wells, DIV20, Biomol library, replica 1
# [4] = Z-score of percent GFP+pS6+ neurons in compound-treated Tsc2-knockdown wells, DIV20, Biomol library, replica 2
Molecule,T2 Zscore (Replica 1),T2 Zscore (Replica 2),other results
O=C(NCc1ccncc1)C12CC3CC(C1)CC(c1ccc(Cl)cc1)(C3)C2 [ABC294640],–,–,T2 Zscore (Replica 1) [1]: 0.7311; T2 Zscore (Replica 2) [2]: 0.4836
CCCCC[C@H](O)/C=C/C=C\C=C\C=C\[C@@H](O)[C@@H](O)CCCC(=O)O [Lipoxin A4],–,–,T2 Zscore (Replica 1) [1]: 1.262; T2 Zscore (Replica 2) [2]: 0.3044
CCCCC/C=C\C=C\[C@H](CCCCCCCC(=O)O)OO [9(S)-HPODE],−0.1465,−0.3361,–
CCCC[C@@H](C)/C=C(C)/C=C(\C)C(=O)NC1=C[C@@](O)(/C=C/C=C/C=C/C(=O)NC2=C(O)CCC2=O)[C@@H]2O[C@@H]2C1=O [Manumycin A],−0.4339,−0.4213,–
CCCCC/C=C\C/C=C\C/C=C\C/C=C\CCCC(N)=O [Arachidonamide],0.02015,0.7927,–
C=C(C)[C@@H]1CC[C@]2(C(=O)O)CC[C@]3(C)[C@H](CC[C@@H]4[C@@]5(C)CC[C@H](O)C(C)(C)[C@@H]5CC[C@]43C)[C@@H]12 [Betulinic acid],–,–,T2 Zscore (Replica 1) [1]: 0.6326; T2 Zscore (Replica 2) [2]: 0.2486
(−)-Huperzine A,1.176,0.5809,–
NC(=O)c1ccc(-c2nc(-c3ccccn3)c(-c3ccc4c(c3)OCO4)[nH]2)cc1 [SB-431542],1.006,−0.8696,–
Cl.Cl.Fc1ccc(C(c2ccc(F)cc2)N2CCN(C/C=C/c3ccccc3)CC2)cc1 [Flunarizine • 2HCl],0.4218 and 0.4911,0.7448 and 1.411,–
Nc1ncnc2c1ncn2C1CCCO1 (centres unmarked) [SQ22536],−0.08797,0.4583,–
"CC(C)(C)c1cc(O)c(C(C)(C)C)cc1O [2,5-Ditertbutylhydroquinone]",–,–,T2 Zscore (Replica 1) [1]: 0.8977; T2 Zscore (Replica 2) [2]: 0.1443
COC1=CC(=O)O[C@@H](/C=C/c2ccccc2)C1 (racemic) [Kavain (+/−)],−0.009244,0.1749,–
CCCCCCCCCCCCCCCCOCC(COP(=O)([O-])OCC[N+](C)(C)C)OC(C)=O (stereo not drawn) [Enantio-PAF C16],−1.476,0.3258,–
CCCCCCOC(=O)[C@]1(O)C[C@@H]2O[C@@]1(C)n1c3ccccc3c3c4c(c5c6ccccc6n2c5c31)C(=O)NC4 [KT-5720],−0.2105,−0.686,–
CC1=C(/C=C/C(C)=C\C=C\C(C)=C\C(=O)O)C(C)(C)CCC1 [9-cis Retinoic acid],–,–,T2 Zscore (Replica 1) [1]: 1.135; T2 Zscore (Replica 2) [2]: −0.4761
N#CC(=C(/N)Sc1ccccc1N)/C(C#N)=C(/N)Sc1ccccc1N [U-0126],0.03378,0.5725,–
CO[C@@H]1[C@H](C)[C@H]([C@]2(C)CC[C@H]([C@]3(C)CC[C@]4(C[C@H](OC)[C@@H](C)[C@@H]([C@@H](C)[C@H]5O[C@@](O)([C@H](C)C(=O)O)[C@H](C)[C@@H](OC)[C@H]5C)O4)O3)O2)O[C@H]1[C@H]1O[C@](C)(O)[C@H](C)[C@@H](OC)[C@@H]1C [lonomycin],0.1261,0.4393,–
CC(C)NC[C@H](O)COc1cccc2ccccc12.Cl [(S)-(−)-propranolol • HCl],–,–,T2 Zscore (Replica 1) [1]: 0.8998; T2 Zscore (Replica 2) [2]: 0.4738
O=C1C(SCCO)=C(SCCO)C(=O)c2ccccc21 [NSC-95397],−1.928,−1.51,–
NC(N)=NCCNS(=O)(=O)c1cccc2cnccc12 [HA-1004],−0.4193,−0.3001,–

Molecule,T2 Zscore (Replica 1),T2 Zscore (Replica 2),other results
CC1(C)Oc2ccc(C#N)cc2[C@@H](OC2=CC(=O)CC2)[C@@H]1O [PCO-400],0.7699,1.481,–
Cc1coc2c1C(=O)C(=O)c1c-2ccc2c1CCCC2(C)C [Tanshinone IIA],–,–,T2 Zscore (Replica 1) [1]: 0.3714; T2 Zscore (Replica 2) [2]: 1.072
CCCCCCCCCCCCCCCCOC[C@H](COP(=O)([O-])OCC[N+](C)(C)C)OC(C)=O [PAF C16],−0.6055,−0.5014,–
COC(=O)[C@@H](N)CCCNC(=N)N[N+](=O)[O-] [L-NAME],–,–,T2 Zscore (Replica 1) [1]: 0.01616; T2 Zscore (Replica 2) [2]: 0.3433
CN(C)C(=O)C(CCN1CCC(O)(c2ccc(Cl)cc2)CC1)(c1ccccc1)c1ccccc1.Cl [Loperamide•HCl],0.8171,−1.394,–
CC(C)[C@@H]1NC(=O)[C@H](C)OC(=O)[C@@H](C(C)C)NC(=O)[C@@H](C(C)C)OC(=O)[C@H](C(C)C)NC(=O)[C@H](C)OC(=O)[C@@H](C(C)C)NC(=O)[C@@H](C(C)C)OC(=O)[C@H](C(C)C)NC(=O)[C@H](C)OC(=O)[C@@H](C(C)C)NC(=O)[C@@H](C(C)C)OC1=O [Valinomycin],−1.656,−1.688,–
O=C(O)CN1C(=O)c2cccc3cccc(c23)C1=O [Alrestatin],–,–,T2 Zscore (Replica 1) [3]: 0.8307; T2 Zscore (Replica 2) [4]: 2.016
CCCC[C@H]1C(=O)O[C@H](C)[C@H](NC(=O)c2cccc(NC=O)c2OC)C(=O)O[C@@H](C)[C@@H]1OC(=O)CC(C)C [2-methoxyantimycin A3],0.3786,1.462,–
COc1ccc(C2CNC(=O)C2)cc1OC1CCCC1 (centres unmarked) [Rolipram],–,–,T2 Zscore (Replica 1) [1]: 0.2553; T2 Zscore (Replica 2) [2]: 0.02387
Cl.NC(=NCc1ccc(Cl)c(Cl)c1)NC(=O)c1nc(Cl)c(N)nc1N [Diehlorobenzamil • HCl],0.3744,−0.06006,–
CC/C=C\C/C=C\C/C=C\CCCCCCCC(=O)O [Linolenic acid (18:3 n-3)],0.3774,−0.4887,–
NC(=O)c1cccc(N)c1 [3-aminobenzamide (3-ABA)],−1.513,0.6779,–
COC(=O)C1=C(C)NC(C)=C(C(=O)OCCSc2ccccc2)C1C (centres unmarked) [PCA 4248],−0.3678,−0.1661,–
C[C@]12C=CC(=O)C=C1CC[C@@H]1C2=CC[C@]2(C)[C@@H](C(=O)CN3CCN(c4cc(N5CCCC5)nc(N5CCCC5)n4)CC3)CC[C@@H]12.O=C(O)/C=C\C(=O)O [U-74389G],−0.7285,0.2421,–
CCCCCC[C@@H]([C@@H](C)O)n1cnc2c(N)ncnc21 (racemic) [EHNA],0.1919,−1.11,–
Oc1cc(O)cc(/C=C/c2ccc(O)c(O)c2)c1 [Piceatannol],–,–,T2 Zscore (Replica 1) [1]: 0.4133; T2 Zscore (Replica 2) [2]: 1.538
O=S(=O)(c1cccc2c(Cl)cccc12)N1CCCNCC1 [ML9],0.9512,0.2996,–
CS(=O)(=O)Nc1ccc([N+](=O)[O-])cc1Oc1ccccc1 [Nimesulide],–,–,T2 Zscore (Replica 1) [3]: 0.7431; T2 Zscore (Replica 2) [4]: 1.024
CCCCCCCC/C=C\C/C=C\C/C=C\CCCC(=O)O [Mead acid (20:3 n-9)],1.221,−0.08644,–
COc1cc2ncc(-c3ccccc3)nc2cc1OC [AG-1296],0.1248,0.3123,–

# Source: US20230218577A1, “USE OF HEAT SHOCK PROTEIN INHIBITORS FOR THE TREATMENT OF NEURODEVELOPMENTAL DISORDERS” (The Children's Medical Center Corporation, priority 2020, published 2023)
